Literature values, collected in publication PMC3413252.

The chains behind the UniProt entries cited, without tags or fusion partners. Residues count along the entry.
UniProt P40189, 23-619: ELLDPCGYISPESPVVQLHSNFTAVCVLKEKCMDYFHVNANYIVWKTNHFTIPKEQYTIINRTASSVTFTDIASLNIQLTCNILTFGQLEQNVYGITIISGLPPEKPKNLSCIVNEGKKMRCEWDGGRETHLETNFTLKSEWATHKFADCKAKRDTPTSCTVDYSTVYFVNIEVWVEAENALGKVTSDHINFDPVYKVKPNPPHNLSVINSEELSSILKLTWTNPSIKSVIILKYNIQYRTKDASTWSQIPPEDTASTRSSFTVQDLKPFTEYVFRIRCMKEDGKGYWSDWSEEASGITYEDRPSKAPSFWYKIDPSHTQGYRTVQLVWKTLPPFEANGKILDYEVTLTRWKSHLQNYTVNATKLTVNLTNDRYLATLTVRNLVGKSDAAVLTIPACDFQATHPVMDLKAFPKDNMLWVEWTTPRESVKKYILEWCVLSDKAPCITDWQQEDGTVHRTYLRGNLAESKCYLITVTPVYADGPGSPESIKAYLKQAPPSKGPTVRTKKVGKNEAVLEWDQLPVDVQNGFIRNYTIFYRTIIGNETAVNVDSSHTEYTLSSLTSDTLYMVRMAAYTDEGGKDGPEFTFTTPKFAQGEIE
UniProt P05231, 30-212: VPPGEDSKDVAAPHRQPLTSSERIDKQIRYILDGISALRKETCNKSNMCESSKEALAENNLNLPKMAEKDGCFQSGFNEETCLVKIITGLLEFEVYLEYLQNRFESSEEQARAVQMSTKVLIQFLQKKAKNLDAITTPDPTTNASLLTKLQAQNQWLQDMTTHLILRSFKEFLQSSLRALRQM

Biological target: soluble gp130 (UniProt P40189)

In the case of “IL6 (active, receptor-bound) (from UniProt P05231)”, the Kd is listed as 3 nM.
